The values that follow come from patent US20100285451A1.

Protein sequences, listed by entry. Tags and fused reporters are not part of them. Chains listed by the source or under a name are the forms on record and can include a tag or linker.
UniProt P29754, other isoform, or with tags, fused parts or gaps H31R H31R: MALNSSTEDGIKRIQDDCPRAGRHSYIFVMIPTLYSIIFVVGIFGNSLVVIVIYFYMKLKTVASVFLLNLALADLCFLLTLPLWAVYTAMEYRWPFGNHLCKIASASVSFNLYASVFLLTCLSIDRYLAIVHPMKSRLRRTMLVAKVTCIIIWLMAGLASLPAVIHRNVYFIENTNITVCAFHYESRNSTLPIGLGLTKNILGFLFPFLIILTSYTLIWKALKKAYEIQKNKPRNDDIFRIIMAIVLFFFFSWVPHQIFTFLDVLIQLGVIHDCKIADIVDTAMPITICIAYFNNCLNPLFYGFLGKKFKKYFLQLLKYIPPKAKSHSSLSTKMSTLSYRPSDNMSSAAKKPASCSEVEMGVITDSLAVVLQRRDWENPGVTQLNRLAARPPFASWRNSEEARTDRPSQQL

The test addresses Angiotensin receptor 1a-eYFP-α fusion (mouse Angiotensin II receptor 1a, C-terminal eYFP-α(H31R)) (mouse; E. coli) (UniProt P29754). In words: cell-based or functional assay.

Turning to “angiotensin II (from UniProt P01019 25-32) (peptide)”, the EC50, arrestin-binding activation assay (β-galactosidase complementation of β-arrestin-ω + GPCR-eYFP-α) worked out at 2.4 nM and the EC50, internalization assay (β-galactosidase complementation of FYVE-ω + GPCR-eYFP-α) stood at 3.3 nM.
